Measurements reported in IntAct's records for PubMed 35512704.

B1: RAC-alpha serine/threonine-protein kinase (Homo sapiens), P31749 (parent)
chain: MSDVAIVKEGWLHKRGEYIKTWRPRYFLLKNDGTFIGYKERPQDVDQREAPLNNFSVAQCQLMKTERPRPNTFIIRCLQWTTVIERTFHVETPEEREEWTTAIQTVADGLKKQEEEEMDFRSGSPSDNSGAEEMEVSLAKPKHRVTMNEFEYLKLLGKGTFGKVILVKEKATGRYYAMKILKKEVIVAKDEVAHTLTENRVLQNSRHPFLTALKYSFQTHDRLCFVMEYANGGELFFHLSRERVFSEDRARFYGAEIVSALDYLHSEKNVVYRDLKLENLMLDKDGHIKITDFGLCKEGIKDGATMKTFCGTPEYLAPEVLEDNDYGRAVDWWGLGVVMYEMMCGRLPFYNQDHEKLFELILMEEIRFPRTLGPEAKSLLSGLLKKDPKQRLGGGSEDAKEIMQHRFFAGIVWQHVYEKKLSPPFKPQVTSETDTRYFDEEFTAQMITITPPDQDDSMECVDSERRPHFPQFSYSASGTA

Variants of: B1
Conditions: with prdm1_human PRDM1, O75626
E17K was tested, and the “effect of a mutation on the interaction” value was “causing an interaction”.

Variants of: B1
Conditions: with prex2_human PREX2, Q70Z35
In the case of E17K, the “effect of a mutation on the interaction” value is reported as “causing an interaction”.

Variants of: B1
Conditions: with aapk2_human PRKAA2, P54646
With E17K the “effect of a mutation on the interaction” value was “causing an interaction”.

Variants of: B1
Conditions: with rac1_human RAC1
In the case of E17K, the “effect of a mutation on the interaction” value is reported as “causing an interaction”.

Variants of: B1
Conditions: with rara_human RARA
E17K was tested, and the “effect of a mutation on the interaction” value was “causing an interaction”.

Variants of: B1
Conditions: with rhoa_human RHOA
For E17K, the “effect of a mutation on the interaction” value was “causing an interaction”.

Variants of: B1
Conditions: with rictr_human RICTOR
E17K was tested, and the “effect of a mutation on the interaction” value was “causing an interaction”.

Variants of: B1
Conditions: with rl11_human RPL11
In the case of E17K, the “effect of a mutation on the interaction” value is reported as “causing an interaction”.

Variants of: B1
Conditions: with rl5_human RPL5
In the case of E17K, the “effect of a mutation on the interaction” value is reported as “causing an interaction”.

Variants of: B1
Conditions: with rptor_human RPTOR
E17K was tested, and the “effect of a mutation on the interaction” value was “causing an interaction”.

Variants of: B1
Conditions: with runx1_human RUNX1
E17K was tested, and the “effect of a mutation on the interaction” value was “causing an interaction”.

Variants of: B1
Conditions: with sdha_human SDHA
In the case of E17K, the “effect of a mutation on the interaction” value is reported as “causing an interaction”.

Variants of: B1
Conditions: with setb1_human SETDB1
With E17K the “effect of a mutation on the interaction” value was “causing an interaction”.

Variants of: B1
Conditions: with skp2_human SKP2
For E17K, the “effect of a mutation on the interaction” value was “causing an interaction”.

Variants of: B1
Conditions: with snf5_human SMARCB1
E17K was tested, and the “effect of a mutation on the interaction” value was “causing an interaction”.

Variants of: B1
Conditions: with smuf1_human SMURF1, Q9HCE7
With E17K the “effect of a mutation on the interaction” value was “causing an interaction”.

Variants of: B1
Conditions: with stk38_human STK38, Q15208
For E17K, the “effect of a mutation on the interaction” value was “causing an interaction”.

Variants of: B1
Conditions: with eloc_human ELOC
With E17K the “effect of a mutation on the interaction” value was “causing an interaction”.

Variants of: B1
Conditions: with tead4_human TEAD4, Q15561
With E17K the “effect of a mutation on the interaction” value was “causing an interaction”.

Variants of: B1
Conditions: with tnr14_human TNFRSF14, Q92956
E17K was tested, and the “effect of a mutation on the interaction” value was “causing an interaction”.

Variants of: B1
Conditions: with tpx2_human TPX2, Q9ULW0
In the case of E17K, the “effect of a mutation on the interaction” value is reported as “causing an interaction”.

Variants of: B1
Conditions: with tsc2_human TSC2, P49815
In the case of E17K, the “effect of a mutation on the interaction” value is reported as “causing an interaction”.

Variants of: B1
Conditions: with tshr_human TSHR
For E17K, the “effect of a mutation on the interaction” value was “causing an interaction”.

Variants of: B1
Conditions: with vhl_human VHL
In the case of E17K, the “effect of a mutation on the interaction” value is reported as “causing an interaction”.

Variants of: B1
Conditions: with wee1_human WEE1, P30291
E17K was tested, and the “effect of a mutation on the interaction” value was “causing an interaction”.

Variants of: B1
Conditions: with wnk1_human WNK1, Q9H4A3
E17K was tested, and the “effect of a mutation on the interaction” value was “causing an interaction”.

Variants of: B1
Conditions: with wwtr1_human WWTR1
With E17K the “effect of a mutation on the interaction” value was “causing an interaction”.

Variants of: B1
Conditions: with arrb2_human ARRB2
With E17K the “effect of a mutation on the interaction” value was “increasing interaction strength”.

Variants of: B1
Conditions: with atm_human ATM
For E17K, the “effect of a mutation on the interaction” value was “increasing interaction strength”.

Variants of: B1
Conditions: with aurkb_human AURKB
E17K was tested, and the “effect of a mutation on the interaction” value was “increasing interaction strength”.

Variants of: B1
Conditions: with bard1_human BARD1, Q99728
For E17K, the “effect of a mutation on the interaction” value was “increasing interaction strength”.

Variants of: B1
Conditions: with bcor_human BCOR
E17K was tested, and the “effect of a mutation on the interaction” value was “increasing interaction strength”.

Variants of: B1
Conditions: with chd1l_human CHD1L
For E17K, the “effect of a mutation on the interaction” value was “increasing interaction strength”.

Variants of: B1
Conditions: with ch3l1_human CHI3L1, P36222
With E17K the “effect of a mutation on the interaction” value was “increasing interaction strength”.

Variants of: B1
Conditions: with e2f2_human E2F2, Q14209
With E17K the “effect of a mutation on the interaction” value was “increasing interaction strength”.

Variants of: B1
Conditions: with epha7_human EPHA7, Q15375
E17K was tested, and the “effect of a mutation on the interaction” value was “increasing interaction strength”.

Variants of: B1
Conditions: with ezh2_human EZH2, Q15910
E17K was tested, and the “effect of a mutation on the interaction” value was “increasing interaction strength”.

Variants of: B1
Conditions: with fgf19_human FGF19, O95750
E17K was tested, and the “effect of a mutation on the interaction” value was “increasing interaction strength”.

Variants of: B1
Conditions: with fgfp1_human FGFBP1
In the case of E17K, the “effect of a mutation on the interaction” value is reported as “increasing interaction strength”.

Variants of: B1
Conditions: with gata1_human GATA1, P15976
For E17K, the “effect of a mutation on the interaction” value was “increasing interaction strength”.

Variants of: B1
Conditions: with gna11_human GNA11, P29992
E17K was tested, and the “effect of a mutation on the interaction” value was “increasing interaction strength”.

Variants of: B1
Conditions: with gna13_human GNA13, Q14344
For E17K, the “effect of a mutation on the interaction” value was “increasing interaction strength”.

Variants of: B1
Conditions: with mcl1_human MCL1
E17K was tested, and the “effect of a mutation on the interaction” value was “increasing interaction strength”.

Variants of: B1
Conditions: with myc_human MYC
E17K was tested, and the “effect of a mutation on the interaction” value was “increasing interaction strength”.

Variants of: B1
Conditions: with ikba_human NFKBIA
For E17K, the “effect of a mutation on the interaction” value was “increasing interaction strength”.

Variants of: B1
Conditions: with pdcd1_human PDCD1, Q15116
For E17K, the “effect of a mutation on the interaction” value was “increasing interaction strength”.

Variants of: B1
Conditions: with ppard_human PPARD
In the case of E17K, the “effect of a mutation on the interaction” value is reported as “increasing interaction strength”.

Variants of: B1
Conditions: with aapk2_human PRKAA2, P54646
Remark: another data set of the same source
In the case of E17K, the “effect of a mutation on the interaction” value is reported as “increasing interaction strength”.

Variants of: B1
Conditions: with rictr_human RICTOR
Remark: another data set of the same source
With E17K the “effect of a mutation on the interaction” value was “increasing interaction strength”.

Variants of: B1
Conditions: with rl11_human RPL11
Remark: another data set of the same source
With E17K the “effect of a mutation on the interaction” value was “increasing interaction strength”.

Variants of: B1
Conditions: with rl5_human RPL5
Remark: another data set of the same source
With E17K the “effect of a mutation on the interaction” value was “increasing interaction strength”.

Variants of: B1
Conditions: with sdha_human SDHA
Remark: another data set of the same source
E17K was tested, and the “effect of a mutation on the interaction” value was “increasing interaction strength”.

Variants of: B1
Conditions: with sin1_human MAPKAP1, Q9BPZ7
With E17K the “effect of a mutation on the interaction” value was “increasing interaction strength”.

Variants of: B1
Conditions: with skp2_human SKP2
Remark: another data set of the same source
E17K was tested, and the “effect of a mutation on the interaction” value was “increasing interaction strength”.

Variants of: B1
Conditions: with smuf1_human SMURF1, Q9HCE7
Remark: another data set of the same source
E17K was tested, and the “effect of a mutation on the interaction” value was “increasing interaction strength”.

Variants of: B1
Conditions: with tnr14_human TNFRSF14, Q92956
Remark: another data set of the same source
For E17K, the “effect of a mutation on the interaction” value was “increasing interaction strength”.

Variants of: B1
Conditions: with tsc2_human TSC2, P49815
Remark: another data set of the same source
In the case of E17K, the “effect of a mutation on the interaction” value is reported as “increasing interaction strength”.

Variants of: B1
Conditions: with pk3cb_human PIK3CB
In the case of E17K, the “effect of a mutation on the interaction” value is reported as “increasing interaction strength”.
